# Ab-14 light chain CDR variants: yeast mating affinities

Target peptide (SARS-CoV-2 spike, HR2 region): PDVDLGDISGINAS

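This is the validation round: designs drawn from the data on random variants, tested in the same kind of assay. Group labels follow the data file (Ctrl: baseline library sampled from a position-specific scoring matrix, with some repeated check sequences; En: ensemble of fine-tuned language models; GP: Gaussian process model; HC: hill climbing; Gen: genetic algorithm; Gibbs: Gibbs sampling; a sequence that several methods proposed may carry one label only). AlphaSeq pools MATa yeast showing the antibodies with MATalpha yeast showing the peptide. After mating in shaken culture at 30 °C for 16 h, diploids were selected and their barcode pairs sequenced. Each replicate has its own calibration line, from reference interactions of the BCL2 family. Mating was done six times.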

Ab-14 is the parent antibody, in scFv form: VH, then a (GGGGS)3 linker, then VL. The heavy chain is unchanged in all variants.
VH: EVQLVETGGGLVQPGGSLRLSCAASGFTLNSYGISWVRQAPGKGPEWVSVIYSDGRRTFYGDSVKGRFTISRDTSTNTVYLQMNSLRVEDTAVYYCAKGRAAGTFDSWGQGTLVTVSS
VL: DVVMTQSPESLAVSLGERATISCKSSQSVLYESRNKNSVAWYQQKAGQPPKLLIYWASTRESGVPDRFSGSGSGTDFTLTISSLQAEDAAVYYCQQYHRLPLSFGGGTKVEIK

Variants are written as CDR1, CDR2 and CDR3 of the light chain (limits as in the source). Parent: KSSQSVLYESRNKNSVA, WASTRES, QQYHRLPLS.
This list holds designs with more than six substitutions.
The Kd shown is the geometric mean over detected replicates; a lower Kd is a better binder.
An entry "no signal" has no value in the source: the pair was not observed among the diploids in any replicate. This suggests poor binding but is not conclusive.
A sequence measured in both rounds can read differently, since the two assays cover different ranges.
The authors' rule: three or more of the six replicates give a measured affinity, fewer mean a poor binder.
As a blank, each scFv also met three strains without target: over all light chain designs, 4% of these pairings were detected, typically at 430 nM and seldom below 38 nM. Also given: how often the same scFv was detected with the empty control strains.

With KLSMSWMQEERNKNSVA | QASTREQ | QQYHRLPLS [GP_Gibbs] the result was 540 pM (6 of 6 replicates; controls 1 of 18). Variant HISQEVGMTSRNKNSVA | ENSTRED | QQYDRLPLS [En_HC] gave 35 nM (6 of 6 replicates; controls 3 of 18). Variant QISQSVGMTSRNKNSVA | ENSTRED | QQYDRLPLS [En_HC] showed 600 nM (3 of 6 replicates; controls 0 of 18). For KMAQSVEVLSRNKNSVA | NASTREM | QQYHRLPLS [GP_Gibbs], the assay gave 1.1 nM (6 of 6 replicates; controls 1 of 18). Variant KLTAKQNPYDQNYSNIA | EETNSLQ | QQYKHLPLS [En_Gibbs] gave 860 nM (6 of 6 replicates; controls 1 of 18). For KHEEQVEYESRNKNSVA | NASTRLS | QQYHRLPLS [GP_Gibbs], the assay gave 1.1 nM (6 of 6 replicates; controls 0 of 18). Variant KRSSSVLPESRNKNSEA | AASTREK | QWYHRLPLS [Ctrl] gave no signal (0 of 6 replicates; controls 0 of 18).

With TISQMWFIESKNRNNVA | EMTTRED | QDYDRLPLS [En_HC] the result was 4.7 nM (6 of 6 replicates; controls 1 of 18). For KLSQSVLFFGHAINSVA | EMETREY | QQYDRLPLS [En_HC], the assay gave 12 nM (6 of 6 replicates; controls 1 of 18). Variant KVEGSHLYESRNGNSVA | NASQRED | QQYHRLPLS [GP_Gibbs] gave 2.7 nM (6 of 6 replicates; controls 0 of 18). For KFVQSQDYESRNKNSVA | QASQREQ | QQYHRLPLS [GP_Gibbs], the assay gave 740 pM (6 of 6 replicates; controls 3 of 18). Variant KLQSLEQYESRWKNNVA | SASTRSS | QQYHRLPLS [GP_Gibbs] gave 5.0 nM (6 of 6 replicates; controls 2 of 18). Variant KISQMVRVGQTHGNSIA | EEATRAK | QQYHRLPLA [En_Gen] gave 8.7 nM (6 of 6 replicates; controls 0 of 18). Variant MLSDLVKLGSRNTNSVA | DNSTRGS | QQYDRLPLS [En_HC] showed 130 nM (6 of 6 replicates; controls 4 of 18).

Variant HLGLVTMLEEAVRNNVA | NNSTREV | QQYDRLPLS [En_Gen] showed 58 nM (6 of 6 replicates; controls 3 of 18). With KIGMTLNQLMHQKNNVA | DLVMRES | QQYHRLPLS [En_Gen] the result was 120 nM (4 of 6 replicates; controls 1 of 18). With YSSQSVLPDSYNHNSVA | DASEREF | QQYHRLPLS [Ctrl] the result was 6.3 nM (6 of 6 replicates; controls 0 of 18). For MIGGTLMYGVMNRSNVA | EVSERLN | QQYDRLPLI [En_Gen], the assay gave 11 nM (6 of 6 replicates; controls 2 of 18). For NLYQSMNFLGRVANSIA | DASTIWD | QQYHRLPLS [En_HC], the assay gave 7.6 nM (6 of 6 replicates; controls 0 of 18). Variant QLLMATMQGTYNRNSVA | HAQTRND | QSYHRLPLS [En_HC] gave 160 nM (5 of 6 replicates; controls 0 of 18). Variant HISQMHFLESKNKNNVA | EESTRED | QSYFRLPLS [En_HC] gave 1.0 nM (6 of 6 replicates; controls 1 of 18).

Variant IISQSMLYESATHNSIA | QTSTREK | QQYHHLPLS [En_HC] showed 5.0 nM (6 of 6 replicates; controls 1 of 18). Variant ILSQSVLMGMHTKNNVA | QAQMRFN | QQYHRLPFM [En_HC] showed 100 nM (4 of 6 replicates; controls 1 of 18). With YLSNQETEQIQHANSIA | DRDEVDV | QQYAHLPLS [En_Gibbs] the result was 150 nM (3 of 6 replicates; controls 0 of 18). For KITATMRFEQKQKNNIA | EVTTRSK | QQYYRLPLA [En_Gen], the assay gave 11 nM (6 of 6 replicates; controls 0 of 18). Variant KLDQSWWGEWRNKNSVA | QASTREQ | QQYHRLPLS [GP_Gibbs] gave 1.5 nM (6 of 6 replicates; controls 2 of 18). For KISQMVAYESTWHGAIA | QTSEREE | QQYHRLPFS [En_HC], the assay gave 6.7 nM (6 of 6 replicates; controls 0 of 18). Variant KLSMSMLMESRKKNSVA | ENSTREE | QHYHRLPLS [En_HC] showed 76 nM (5 of 6 replicates; controls 1 of 18).

For KLMQMTGIESHNKNSLA | DANRRES | QQYHRLPLS [En_HC], the assay gave 2.7 nM (6 of 6 replicates; controls 1 of 18). For KLSQSVLYQMEQKNSVA | QASTRMS | QQYHRLPLS [GP_Gibbs], the assay gave 1.6 nM (6 of 6 replicates; controls 1 of 18). With TLGQVTMQLSRNKNSVA | DASTSED | QQYDRLPLS [En_HC] the result was 24 nM (6 of 6 replicates; controls 0 of 18). With KLSMMYQHTSRNKNNIA | ERSTRES | QQYHHLPLS [En_HC] the result was 63 nM (6 of 6 replicates; controls 1 of 18). Variant TIGAQLMYGMRNWSNVA | EVSERLN | QQYDRLPLF [En_Gen] gave 17 nM (6 of 6 replicates; controls 0 of 18). For MISSLYNMGQFAINSVA | QASTRNE | QQYDRLPLM [En_Gen], the assay gave 36 nM (5 of 6 replicates; controls 0 of 18). With KLEQSELYESRNANSVA | NASTRMS | QQYKRLPLS [GP_Gibbs] the result was 940 pM (6 of 6 replicates; controls 3 of 18).

For ALQQLELYESRNWNSVA | NASTREK | QQYHRLPLS [GP_Gibbs], the assay gave 1.2 nM (6 of 6 replicates; controls 0 of 18).

Source: Li et al. 2023 (doi:10.1038/s41467-023-39022-2), MIT Lincoln Laboratory and A-Alpha Bio; data file from the FLAb repository.